Source: US20080269241A1, “BICYCLIC AMINOPROPYL TETRAHYDRO-PYRAZOLO-PYRIDINE MODULATORS OF CATHEPSIN S” (priority 2007, published 2008)
Where two headings read alike, the source gives them in different places.

Chains of the proteins cited; added tags and fusions are not shown. Residues count along the entry.
UniProt P25774, 115-331: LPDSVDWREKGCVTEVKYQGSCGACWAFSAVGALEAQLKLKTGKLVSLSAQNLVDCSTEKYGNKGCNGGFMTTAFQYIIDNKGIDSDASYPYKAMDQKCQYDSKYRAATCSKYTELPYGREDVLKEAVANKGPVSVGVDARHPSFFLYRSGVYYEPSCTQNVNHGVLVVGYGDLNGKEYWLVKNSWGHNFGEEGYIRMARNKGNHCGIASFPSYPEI

Target: T1, human cathepsin S (CatS) (Homo sapiens, UniProt P25774)
T1 construct: made in house; host or cells: baculovirus system (insect cells)
Test: Recombinant human cathepsin S (CatS) fluorogenic substrate inhibition assay
Assay type: biochemical
Description: Recombinant human cathepsin S (CatS) was expressed in the baculovirus system and purified in one step with a thiopropyl-sepharose column. […] The assay is run in 150 mM sodium acetate pH 5.0 containing 1.5 mM DTT and 150 mM NaCl. […] Measurements are taken every min for 20 min. The rate is calculated from the slope of the increase in fluorescence and the percent inhibition is calculated from this.

[1] = recombinant human CatS, 10 μM Z-Valine-Valine-Arginine-AMC, pH 5.0, average of results obtained, read-out: CatS IC50

| Compound | IC50 [1] [nM] | IC50 [nM] |
| --- | --- | --- |
| CS(=O)(=O)N1CCc2c(c(-c3ccc(C(F)(F)F)c(CNC(=O)Oc4ccccc4)c3)nn2CC(O)CN2CCC(N3CCCC3=O)CC2)C1 (stereo not shown) [Example 115, [5-(1-{2-Hydroxy-3-[4-(2-oxo-pyrrolidin-1-yl)-piperidin-1-yl]-propyl}-5-methanesulfonyl-4,5,6,7-tetrahydro-1H-pyrazolo[4,3-c]pyridin-3-yl)-2-trifluoromethyl-benzyl]-carbamic acid phenyl ester] | 120 | – |
| CS(=O)(=O)N1CCc2c(c(-c3ccc(C(F)(F)F)c(CNC(=O)c4c[nH]c5ccccc45)c3)nn2CC(O)CN2CCC(N3CCCC3=O)CC2)C1 (stereo not shown) [Example 117, 1H-Indole-3-carboxylic acid 5-(1-{2-hydroxy-3-[4-(2-oxo-pyrrolidin-1-yl)-piperidin-1-yl]-propyl}-5-methanesulfonyl-4,5,6,7-tetrahydro-1H-pyrazolo[4,3-c]pyridin-3-yl)-2-trifluoromethyl-benzylamide] | – | 130 |
| CC(C)(C)CC(=O)NCc1cc(-c2nn(CCCN3CCC(N4CCCC4=O)CC3)c3c2CN(S(C)(=O)=O)CC3)ccc1C(F)(F)F [Example 118, N-[5-(5-Methanesulfonyl-1-{3-[4-(2-oxo-pyrrolidin-1-yl)-piperidin-1-yl]-propyl}-4,5,6,7-tetrahydro-1H-pyrazolo[4,3-c]pyridin-3-yl)-2-trifluoromethyl-benzyl]-3,3-dimethyl-butyramide] | 130 | – |
| CN(C)CC(=O)NCc1cc(-c2nn(CC(O)CN3CCC(n4c(=O)n(C)c5ccc(N(C)C)nc54)CC3)c3c2CN(S(C)(=O)=O)CC3)ccc1C(F)(F)F (stereo not shown) [Example 146, 2-Dimethylamino-N-[5-(1-{3-[4-(5-Dimethylamino-1-methyl-2-oxo-1,2-dihydro-imidazo[4,5-b]pyridin-3-yl)-piperidin-1-yl]-2-hydroxy-propyl}-5-methanesulfonyl-4,5,6,7-tetrahydro-1H-pyrazolo[4,3-c]pyridin-3-yl)-2-trifluoromethyl-benzyl]-acetamide] | 130 | – |
